The structures appear in SMILES notation.

Sequences of proteins named here, by UniProt entry; tags and fusion partners are left off. A change or cut given only in a name is not applied to a line headed by its entry.
UniProt O15427: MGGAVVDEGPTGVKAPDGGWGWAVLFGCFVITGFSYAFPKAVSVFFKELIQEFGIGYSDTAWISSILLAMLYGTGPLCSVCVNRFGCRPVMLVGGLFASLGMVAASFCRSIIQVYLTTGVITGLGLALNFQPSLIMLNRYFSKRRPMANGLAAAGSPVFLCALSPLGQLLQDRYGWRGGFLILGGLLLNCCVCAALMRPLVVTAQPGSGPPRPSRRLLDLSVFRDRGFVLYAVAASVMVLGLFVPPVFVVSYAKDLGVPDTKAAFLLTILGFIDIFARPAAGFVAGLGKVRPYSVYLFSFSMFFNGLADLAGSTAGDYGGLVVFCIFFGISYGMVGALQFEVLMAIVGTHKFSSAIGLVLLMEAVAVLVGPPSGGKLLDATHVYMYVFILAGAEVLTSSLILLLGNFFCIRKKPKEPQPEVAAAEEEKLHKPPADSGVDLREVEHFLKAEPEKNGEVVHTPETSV

The assay deals with MCT4 (Homo sapiens (Human), UniProt O15427). Briefly: MCT4-mediated lactate transport in MDA-MB-231 breast cancer cells. Particulars: MDA-MB-231 cells, native MCT4; 50 mM L-lactate. It counts as cell-based. The procedure:
10 μL of a 30 mM DMSO stock of BCECF-AM ester (Life Technologies) is added and the cells are incubated at 37° C. for 5 min. The cells are pelleted (300 g, 5 min), washed once with 1 mL Tyrode's Solution, pH 7.4, re-pelleted (300 g, 5 min), and resuspended in 1 mL Tyrode's Solution, pH 7.4.
2.5 μL BCECF-loaded cells, along with either 10 μL DMSO or 100×compound in DMSO, are added to 937.5 μL of Tyrode's Solution in a quartz 1.0 mL cuvette (PerkinElmer, B0631116). […] After establishing baseline BCECF fluorescence (around 10-20 s), 50 μL of 1 M sodium L-lactate (Sigma-Aldrich) is added to the cuvette (final concentration: 50 mM) and rapidly mixed. The time-dependent decrease in BCECF fluorescence (490/440 ratio) may be fit to an exponential decay curve (Prism GraphPad) to determine the rate of lactate transport.
Preparation of BCECF-loaded cells and lactate transport activity may be determined as described for Assay 1.

For `CC(C)(OCc1cc(Cc2ccccc2)n(Cc2ccccc2Cl)n1)C(=O)O` [Example 77, 2-([5-Benzyl-1-[(2-chlorophenyl)methyl]-1H-pyrazol-3-yl]methoxy)-2-methylpropanoic Acid], it took 340 nM to reach half-maximal inhibition (IC50).

The record behind these values is patent US10202350B2, “MCT4 inhibitors for treating disease” (Vettore, LLC, priority 2015, dated 2019).
